The target of test [1] is hP2X2/3H (Homo sapiens, UniProt P56373+Q9UBL9). Kind of test: Calcium uptake assay (P2X antagonist assay), P2X2/3 heteromer.
Test [2] has as its target hP2X3 (Homo sapiens, UniProt P56373). Put plainly: Calcium uptake assay (P2X antagonist assay), P2X3 homomer.

By UniProt entry, the sequences of proteins in these tests, tags left out.
UniProt P56373, whole entry: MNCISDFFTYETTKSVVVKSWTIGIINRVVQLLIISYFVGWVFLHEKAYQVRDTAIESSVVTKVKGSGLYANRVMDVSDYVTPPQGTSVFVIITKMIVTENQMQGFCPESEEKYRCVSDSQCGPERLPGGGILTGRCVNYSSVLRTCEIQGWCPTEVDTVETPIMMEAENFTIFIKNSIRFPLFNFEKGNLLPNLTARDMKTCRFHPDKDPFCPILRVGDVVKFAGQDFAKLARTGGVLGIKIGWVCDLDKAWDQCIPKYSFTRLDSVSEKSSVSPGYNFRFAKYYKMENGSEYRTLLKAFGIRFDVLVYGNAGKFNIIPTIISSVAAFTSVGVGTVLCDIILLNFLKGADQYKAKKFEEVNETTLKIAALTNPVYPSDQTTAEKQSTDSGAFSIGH
UniProt Q9UBL9, whole entry: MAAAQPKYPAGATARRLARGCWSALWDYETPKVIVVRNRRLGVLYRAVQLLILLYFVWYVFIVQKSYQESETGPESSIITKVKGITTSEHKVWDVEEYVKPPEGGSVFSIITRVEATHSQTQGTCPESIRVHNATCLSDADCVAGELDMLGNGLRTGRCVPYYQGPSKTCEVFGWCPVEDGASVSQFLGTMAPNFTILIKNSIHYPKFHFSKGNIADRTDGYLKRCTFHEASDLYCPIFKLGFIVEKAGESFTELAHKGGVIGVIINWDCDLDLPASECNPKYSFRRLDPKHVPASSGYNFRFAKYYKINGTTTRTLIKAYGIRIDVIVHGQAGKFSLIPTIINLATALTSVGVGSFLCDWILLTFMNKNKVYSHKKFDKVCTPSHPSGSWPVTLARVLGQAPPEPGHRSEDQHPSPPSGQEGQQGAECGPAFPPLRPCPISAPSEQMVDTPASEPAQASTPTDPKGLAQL

The values that follow come from patent publication US8946439B2, “Amide compounds, compositions and uses thereof” (Evotec AG, priority 2008, dated 2015).

Where two headings read alike, the source gives them in different places.

In the case of `Cc1ccc(-c2cc(C(=O)NCc3ccc(C(F)(F)F)nc3)cc(S(C)(=O)=O)c2)nc1`, the IC50 in test [1] (read-out: IC50 hP2X2/3H (nM), Ca Influx, calcium uptake assay) is 100 to 500 nM; in test [2] (read-out: IC50 hP2X3 (nM), Ca Influx, calcium uptake assay) it was less than 100 nM.

Consider `Cc1ccc(CNC(=O)c2cc(-c3ccc(Br)cc3)cc(S(C)(=O)=O)c2)cn1`, for which the IC50 in test [1] (read-out: IC50 hP2X2/3H, Ca influx (calcium uptake assay)) was in the range of 501 to 1000 nM; in test [2] (read-out: IC50 hP2X3, Ca influx (calcium uptake assay)), 100 to 500 nM.
